Test results as given in patent US11617777B2, “Cytotoxic and anti-mitotic compounds, and methods of using the same” (ZYMEWORKS BC INC., priority 2013, dated 2023).

What was measured:
Format in all cases: cell-based
[1] = test system: Jurkat cells; experiment: Cytotoxicity of compounds, CellTiter-Glo; conditions: Homo sapiens
From the text: Cell lines used: Human T-cell leukemia cell line Jurkat (ATCC: TIB-152); HCC1954 (ATCC: CRL. 2338); Human Pancreatic cells lines: AsPC-1 (ATCC: CRL-1682), BxPC-3 (ATCC: CRL.1687), HPAF-II (ATCC: CRL.1997), MiaPaCa2 (ATCC: CRL.1420), PANC-1 (ATCC: CRL.1469), Capan-1 (ATCC: HTB-79), Capan-2 (ATCC: HTB-80) and the Human gastric carcinoma cell line NCI-N87 (ATCC: CRL. 5822); AML-193 (ATCC: CRL.9589), CCRF-CEM (ATCC: CCL-119), DU145 (ATCC: HTB-81), PC-3 (ATCC: CRL.1435), A-431 (ATCC: CRL.1555), HT-29 (ATCC: HTB-38), A-172 (ATCC: CRL.1620), NCI-H358 (ATCC: CRL.5807), A549 (ATCC: CCL-185), Colo-205 (ATCC: CCL-222), MDA-MB-231 (ATCC: HTB-26), OVCAR-3 (ATCC: HTB-161), OV-90 (ATCC: CRL.11732), OE19 (Sigma: 96071721), RT 112/84 (Sigma: 85061106).
(§1) On the day prior to adding compounds, HCC1954 AsPC-1, BxPC-3, HPAF-II, MiaPaCa2, PANC-1, Capan-1, Capan-2 and NCI-N87 cells were added to opaque-walled 96-well tissue culture-treated microtiter plates using complete growth medium at a density of 2500 cells/100 microlitre (uL) of medium. […] After the incubation, cell viability is measured using CellTiter-Glo® reagent by adding thirty uL of prepared CellTiter-Glo® to each assay well. The assay is incubated for at least twenty minutes in the dark prior to measuring emitted luminescence using a microplate luminometer (500 ms integration time). […]

[2] = test system: A549; experiment: Cytotoxicity on various cell lines; conditions: Homo sapiens, Table 8
Procedure: (§2) FIG. 1 summarizes the data for compounds A, B, C, D, and E when tested using the Human mammary carcinoma cell line HCC1954 or Human T-cell leukemia cell line Jurkat. FIGS. 2-6 show the cytotoxicity data plots for individual compounds A-E. Tables 2-6 summarize the results of additional cytotoxicity assays. […]
as §1, with “time). The collected relative luminescence units (RLU) are converted to % cytotoxicity using the Growth medium alone control mentioned above (% Cytotoxicity=1−[Well RLU/average medium alone control RLU]).” for “time).”

[3] = test system: HCC1954 cells; experiment: Cytotoxicity assay of SMCC- and LC-SPDP-linked ADCs and free compounds; conditions: Homo sapiens, HCC1954, Table 10, Coupling #2, read-out: HCC1954 Best-fit EC50
Procedure: The purified ADCs were then analysed for: total protein content (BCA assay, Pierce microBCA protocol), relative affinity for antigen binding (equilibrium native binding), and selective cytotoxic killing of HER2-positive cells (HCC1954) compared HER2-negative cells (Jurkat).
On the day prior to adding test articles, HCC1954 cells were added to opaque-walled 96-well tissue culture-treated microtiter plates using complete growth medium at a density of 2500 cells/100 microlitre (uL) of medium. The HCC1954 cells were incubated for one night at 37° C./5% CO2 to allow the cells to attach to the microtiter plate surface. On the day that test articles were added, Jurkat cells are added to separate 96-well microtiter plates at 2500 cells/100 uL using the same growth medium as HCC1954. […] After the incubation, cell viability was measured using CellTiter-Glo® reagent by adding thirty uL of prepared CellTiter-Glo® to each assay well. The assay was incubated for at least twenty minutes in the dark prior to measuring emitted luminescence using a microplate luminometer (500 ms integration time). The collected relative luminescence units (RLU) were converted to % cytotoxicity using the Growth medium alone control mentioned above (% Cytotoxicity=1−[Well RLU/average medium alone control RLU]).

[4] = test system: HCC1954 cells; experiment: Cytotoxicity of compounds, CellTiter-Glo; conditions: Homo sapiens; Table 1; HCC1954 cells (HER2+), three nights
Procedure: as §2
as §1, with “time). The collected relative luminescence units (RLU) are converted to % cytotoxicity using the Growth medium alone control mentioned above (% Cytotoxicity=1−[Well RLU/average medium alone control RLU]).” for “time).”

Q: What does the source list for CN[C@H](C(=O)N[C@H](C(=O)N(C)[C@H](/C=C(\C)C(=O)NS(=O)(=O)Cc1ccccc1)C(C)C)C(C)(C)C)C(C)(C)c1ccccc1 [Compound 14, (S,E)-N-(benzylsulfonyl)-2,5-dimethyl-4-((S)—N,3,3-trimethyl-2-((S)-3-methyl-2-(methylamino)-3-phenylbutanamido)butanamido)hex-2-enamide]?
A: EC50 ([1]; Table 8): 0.068 nM; EC50 [2]: 0.86 nM

Q: CN[C@H](C(=O)N[C@H](C(=O)N(C)[C@H](/C=C(\C)C(=O)NS(=O)(=O)c1ccc(C(=O)OC)cc1)C(C)C)C(C)(C)C)C(C)(C)c1ccccc1 [Compound 31, methyl 4-(N—((S,E)-2,5-dimethyl-4-((S)—N,3,3-trimethyl-2-((S)-3-methyl-2-(methylamino)-3-phenylbutanamido)butanamido)hex-2-enoyl)sulfamoyl)benzoate] was tested. Which EC50 ([1]; Table 3, Cytotoxicity of Compounds on Jurkat Cells) did it give?
A: 0.094 nM

Q: With CN[C@H](C(=O)N[C@H](C(=O)N(C)[C@H](/C=C(\C)C(=O)NS(=O)(=O)CCCS)C(C)C)C(C)(C)C)C(C)(C)c1ccccc1 [Compound A, (S,E)-N-(3-mercaptopropylsulfonyl)-2,5-dimethyl-4-((S)—N,3,3-trimethyl-2-((S)-3-methyl-2-(methylamino)-3-phenylbutanamido)butanamido)hex-2-enamide] as the compound, how does the EC50 [3] read?
A: 0.86 nM

Q: What about the EC50 [4] of the same compound?
A: 0.86 nM

Q: With CN[C@H](C(=O)N[C@H](C(=O)N(C)[C@H](/C=C(\C)C(=O)NS(=O)(=O)c1ccc(C)cc1)C(C)C)C(C)(C)C)C(C)(C)c1ccccc1 [Compound D, (S,E)-2,5-dimethyl-N-tosyl-4-((S)—N,3,3-trimethyl-2-((S)-3-methyl-2-(methylamino)-3-phenylbutanamido)butanamido)hex-2-enamide] as the compound, how does the EC50 [4] read?
A: 0.061 nM
